Yeast mating assay B: variants of the scFv Ab-14

All variants were tested on one target, the spike HR2 peptide PDVDLGDISGINAS (SARS-CoV-2).

Parent scFv Ab-14: VH joined to VL by a 15-residue (Gly4Ser)3 linker. Changes lie in the light chain CDRs alone.
VH: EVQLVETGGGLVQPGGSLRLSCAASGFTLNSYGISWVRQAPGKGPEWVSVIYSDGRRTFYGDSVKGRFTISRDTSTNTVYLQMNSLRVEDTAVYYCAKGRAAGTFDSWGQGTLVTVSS
VL: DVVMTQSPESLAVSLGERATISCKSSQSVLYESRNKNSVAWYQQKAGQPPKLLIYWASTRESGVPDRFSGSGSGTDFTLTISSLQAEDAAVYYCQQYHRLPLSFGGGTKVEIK

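The starting antibody came from a phage panning campaign against this peptide. These sequences belong to a second round, designed from the earlier measurements on random variants of the parent. Group labels follow the data file (Ctrl: baseline library sampled from a position-specific scoring matrix, with some repeated check sequences; Rand: our label for a block that the file lists under HC and that is probably the random mutants of the ten best first-round binders; En: ensemble of fine-tuned language models; GP: Gaussian process model; GPLM: also part of the Gaussian process libraries; HC: hill climbing; Gen: genetic algorithm; Gibbs: Gibbs sampling; a sequence that several methods proposed may carry one label only). The assay is AlphaSeq: two haploid yeast populations carry antibody and antigen on their surface. Binding brings cells together so that they mate, and sequencing counts the barcode pairs among the diploids. The ratio of observed to expected reads was calibrated, replicate by replicate, on BCL2-family standards whose Kd was known from biolayer interferometry. The assay was run in six technical replicates.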

Each variant is given by its three light chain CDRs, as the data file delimits them; those of the parent are KSSQSVLYESRNKNSVA, WASTRES, QQYHRLPLS.
Each Kd is an estimate from the mating assay, the geometric mean of the replicates in which the pair was seen; lower is stronger.
Where no diploid with the target was found in any replicate, the entry reads "nd": below detection, most likely a poor binder, though not proof of it.
Values of this round are not directly comparable with the first-round values of the same sequences.
In the paper, a design with two or fewer of six values counts as a poor binder.
As a blank, each scFv also met three strains without target: over all light chain designs, 4% of these pairings were detected, typically at 430 nM and seldom below 38 nM. The control count says in how many pairings with the empty strains this scFv gave a signal.
The parent sequence was in this pool as ten entries: three were never detected, three once, and four in most replicates, with averages from 2.2 nM to 240 nM.

| CDR-L1 | CDR-L2 | CDR-L3 | group | Kd | seen in | control signals |
|---|---|---|---|---|---|---|
| KLSMTVDYMSATHSSVA | QTSTREE | QQYHRLPLS | En_HC | 1.3 nM | 6/6 | 3/18 |
| KSSYSVLIESHNKNSVA | NASKRES | QQYHRLPLS | Ctrl | 4.0 nM | 6/6 | 0/18 |
| KFQQSVLYESRNKNSVA | NASTRCS | QQYHRLPLS | GP_Gen | 810 pM | 6/6 | 1/18 |
| SIRAVGCDWQRNHSNIA | DATQIED | QQYDMLPLS | En_Gibbs | 430 nM | 3/6 | 1/18 |
| KIGMTLNQLYQKNNNVA | DLVERED | QQYHRLPLS | En_Gen | 4.2 nM | 6/6 | 0/18 |
| KISQMVRVGSTVSNSIA | EMETRAN | QQYHRLPLA | En_Gen | 6.7 nM | 6/6 | 1/18 |
| KNSQSVLYESRNKNSVA | RASTRES | QQYHRLPLS | Ctrl | 180 nM | 6/6 | 1/18 |
| KLSQSVLYESRMKNSVA | NASERES | QQYHRLPLS | GP_Gen | 3.0 nM | 6/6 | 1/18 |
| HMSMLTLGGMKARNSVA | QMTTREN | QQYDRLPLS | En_Gen | 2.0 nM | 6/6 | 0/18 |
| KLVQFMNRGTHHTSNIA | DAALREE | QQYARLPLA | En_Gen | 1.2 nM | 6/6 | 0/18 |
| MISQVTGLGQRHRNNVA | QTSMRET | QQYDRLPLI | En_Gen | 2.7 nM | 6/6 | 1/18 |
| KSSQSVLYESKNKNSVA | WASTREY | QQYNRLPLS | Ctrl | 190 nM | 6/6 | 0/18 |
| TLVGNIQGGGIMIKSIA | DNVQRAN | QQYYRLPLS | En_Gibbs | 6.0 nM | 6/6 | 1/18 |
| LLSQSSGYEQRNKNSVA | DASQRLS | QQYHRLPLS | GP_Gibbs | 580 pM | 6/6 | 1/18 |
| KSSQSVLGESRNKNSVA | DASTRES | QQYHRLPLS | GPLM_HC | 790 pM | 6/6 | 2/18 |
| KSSTSVLYESRNKNSVA | DASTRES | QQYHRLPLS | GP_HC | 1.7 nM | 6/6 | 1/18 |
| KLQMSELPESRNKNSVA | WASTREP | QQYHRLPLS | GP_Gibbs | 18 nM | 6/6 | 2/18 |
| NIYQAMHTLSQMKDNVA | DVNERGT | QQYYRLPLS | En_Gen | 1.5 nM | 6/6 | 0/18 |
| KVSQSMLQESRNFNSVA | HASTREN | QQYHRLPLS | GP_Gibbs | 1.6 nM | 6/6 | 3/18 |
| NLNDSEMQMPQDTSNIA | QTTLRNL | QQYAKLPLS | En_Gibbs | 1.8 nM | 6/6 | 0/18 |
| KLRQSTLYESRNKNSVA | QASTRES | QQYHRLPLT | Rand | 710 pM | 6/6 | 0/18 |
| QIYQAMHTLSQMKDNVA | DVNERGR | QQYYRLPLS | En_Gen | 3.8 nM | 6/6 | 1/18 |
| KSSQSVKGESRNKNSVA | DASTRES | QQYHRLPLS | GP_HC | 2.4 nM | 6/6 | 0/18 |
| KVSQSVLYESGTKNSVA | NASKRES | QQYHRLPLS | GP_HC | 1.0 nM | 6/6 | 0/18 |
| KISMSYRYESQEENSIA | EMSTREE | QSYHRLPLS | En_HC | nd | 0/6 | 0/18 |
| KLQQSVLYESRNKNSVA | SASTRLS | QQYHRLPLS | GP_Gen | 740 pM | 6/6 | 6/18 |
| KLSQSVEYESRNKNNVA | NASTRES | QQYHRLPLS | GP_Gen | 4.0 nM | 6/6 | 0/18 |
| KSSQSVLYESSNKNSVA | WCSTRES | QQYHRLILS | Ctrl | 240 nM | 2/6 | 1/18 |
| KVQQSVLYESRNKNSVA | DASTRCS | QQYHRLPLS | GP_Gen | 380 pM | 6/6 | 0/18 |
| KSSQSVLYESFNKNSVA | WASTREE | QQYHRLPLS | Ctrl | 52 nM | 6/6 | 1/18 |
| KSTQSVLYESQNKNSVA | WASTRES | QQMHRLPLS | Ctrl | nd | 0/6 | 0/18 |
| KNSISYLYEERNKNSVA | EASTRES | QQYHRLPKS | Rand | 19 nM | 1/6 | 0/18 |
| KSSQSVLYESFNKNSVA | DASTREE | QQYHRLPLS | Ctrl | 2.2 nM | 6/6 | 1/18 |
| TISQSWLIESRNKNNVA | EMSTREN | QDYDRLPLS | En_HC | 920 pM | 6/6 | 1/18 |
| KLSQLTYKESRNKNNVA | EMTTRGS | QQYDRLPLS | En_HC | nd | 0/6 | 0/18 |
| KSSQSLLYESRNKNSVA | EASTRES | QQYHRLPLS | Ctrl | 2.4 nM | 6/6 | 0/18 |
| KIDGQTSYDAGRERAIA | DVTIRFW | QQYARLPLL | En_Gibbs | 7.5 nM | 4/6 | 0/18 |
| MMSMGYLGGMRAKNNVA | QEETREK | QQYHRLPLI | En_HC | 120 nM | 5/6 | 0/18 |
| KLSQGMLYESRNKNSVA | NASTRES | QQYHRLPLS | GP_Gen | 270 pM | 6/6 | 2/18 |
| MFSYNLHDMGRNKNSVA | EMNKSTT | QDYHRLPLA | En_Gibbs | 14 nM | 6/6 | 2/18 |
| MLWQHDEGFNGVKDAIA | NAELREG | QQYGRLPLS | En_Gibbs | 8.2 nM | 6/6 | 2/18 |
| KSSKSGLYESRMKNSVA | EASTRES | QQYHRLPLS | GP_HC | 4.1 nM | 6/6 | 0/18 |
| MISQMFEGLSTSKNPVA | QVSTREN | QQYHRLPLS | En_HC | 570 nM | 5/6 | 0/18 |
| TIGQVMNWESRNTNSVA | QTSEREE | QDYDRLPLS | En_HC | 46 nM | 4/6 | 0/18 |
| KSSSSYLYESMNKNSVA | NASQRES | QQYHRLPLS | GP_HC | 3.9 nM | 6/6 | 0/18 |
| KLRGSTLYESRNPNSVA | WASTRES | QQYHRLPLS | GP_HC | 2.8 nM | 6/6 | 1/18 |
| KSSQGVLYESRNVNSVA | DAETRES | QQYHRLPLS | Ctrl | 1.9 nM | 6/6 | 1/18 |
| KISQSVEYQARNQNSVA | SASTRLS | QQYHRLPLS | GP_Gibbs | 1.1 nM | 6/6 | 3/18 |
| KSSQSQLYESVNKNSVA | DASTRES | QQYHRLPLS | GP_HC | 2.7 nM | 6/6 | 0/18 |
| KLSSITGHMQVEKNNVA | EMETREN | QQYNRLPLS | En_Gen | 3.8 nM | 6/6 | 0/18 |
| KMTKAEQSIGSHQQNIA | DSNKITD | QQYYRLPLS | En_Gibbs | 1.1 nM | 6/6 | 0/18 |
| KLSPSEQYESRNKNSVA | NASLRES | QQYHRLPLS | GP_Gibbs | 1.1 nM | 6/6 | 1/18 |
| SLFEKEREELSVEQNIA | DGTEHMD | QQYFRLPLL | En_Gibbs | 7.8 nM | 6/6 | 0/18 |
| NLVGRVPDNYQGRNAIA | DMHCRAG | QQYERLPLA | En_Gibbs | 4.2 nM | 6/6 | 0/18 |
| KFSISYLYESRNKNSVA | AASTRES | QQYHRLPLS | GP_HC | 2.9 nM | 6/6 | 0/18 |
| KHSQSVLYESRVKNSVA | DASQRES | QQYHRLPLS | GP_Gibbs | 2.9 nM | 6/6 | 1/18 |
| KSSLSVLYESRNKNSVA | GASTRES | QQYHRLPLS | Ctrl | 4.2 nM | 6/6 | 0/18 |
| FSSQSVGYESENKNSVA | WASTRES | QQYHRLPLS | Ctrl | 30 nM | 6/6 | 3/18 |
| HMSQVTMYGMWMRNSVA | QTSTRES | QQYDRLPLS | En_HC | 10 nM | 6/6 | 0/18 |
| KIGDVLNQLMHKKNNVA | DLVTREN | QQYFRLPLS | En_Gen | 26 nM | 6/6 | 2/18 |
| QSDQSVLYESRNKNSVA | GASTRLS | PQYMRLPLS | Ctrl | 8.7 nM | 6/6 | 2/18 |
| KVSQSQLYESRNKNSVA | NASTRCS | QQYHRLPLS | GP_Gen | 1.2 nM | 6/6 | 0/18 |
| KTSQSVLYESRNKNSVA | EASTRES | QQYHRLPLS | Ctrl | 9.5 nM | 6/6 | 0/18 |

For reference, 9 entries of the list once more:

| CDR-L1 | CDR-L2 | CDR-L3 | group | Kd | seen in | control signals |
|---|---|---|---|---|---|---|
| KSSTSVLYESRNKNSVA | DASTRES | QQYHRLPLS | GP_HC | 1.7 nM | 6/6 | 1/18 |
| LLSQSSGYEQRNKNSVA | DASQRLS | QQYHRLPLS | GP_Gibbs | 580 pM | 6/6 | 1/18 |
| KLSQSVLYESRMKNSVA | NASERES | QQYHRLPLS | GP_Gen | 3.0 nM | 6/6 | 1/18 |
| KIGDVLNQLMHKKNNVA | DLVTREN | QQYFRLPLS | En_Gen | 26 nM | 6/6 | 2/18 |
| KSSQGVLYESRNVNSVA | DAETRES | QQYHRLPLS | Ctrl | 1.9 nM | 6/6 | 1/18 |
| KFSISYLYESRNKNSVA | AASTRES | QQYHRLPLS | GP_HC | 2.9 nM | 6/6 | 0/18 |
| KLSMTVDYMSATHSSVA | QTSTREE | QQYHRLPLS | En_HC | 1.3 nM | 6/6 | 3/18 |
| KLSSITGHMQVEKNNVA | EMETREN | QQYNRLPLS | En_Gen | 3.8 nM | 6/6 | 0/18 |
| KSSQSVLYESSNKNSVA | WCSTRES | QQYHRLILS | Ctrl | 240 nM | 2/6 | 1/18 |

From the AlphaSeq antibody data of Li et al. 2023 (doi:10.1038/s41467-023-39022-2), copy in the FLAb collection.